Numbers after ± are expanded uncertainties.
Assay: an = ratio of the nth substance listed, in mol/kg
Settings: 101 kPa, Liquid, Vibrating tube method

CCC[N+](CCC)(CCC)CCC.[O-][Cl+3]([O-])([O-])[O-] [tetrapropylammonium perchlorate] + CN(C)C=O showed a mass density (283.15 K, a1 = 0.01826) of 958.921 ± 0.27 kg/m3, a mass density (283.15 K, a1 = 0.02772) of 959.359 ± 0.27 kg/m3 and a mass density (283.15 K, a1 = 0.03739) of 959.804 ± 0.27 kg/m3. The mass density (283.15 K, a1 = 0.05602) was 960.652 ± 0.27 kg/m3, the mass density (283.15 K, a1 = 0.07557) was 961.532 ± 0.27 kg/m3 and the mass density (283.15 K, a1 = 0.105) was 962.853 ± 0.27 kg/m3. It also gave a mass density (283.15 K, a1 = 0.1323) of 964.068 ± 0.27 kg/m3, a mass density (283.15 K, a1 = 0.1595) of 965.279 ± 0.27 kg/m3 and a mass density (283.15 K, a1 = 0.1889) of 966.57 ± 0.27 kg/m3. For the same molecule, the mass density (293.15 K, a1 = 0.01826) was 949.431 ± 0.27 kg/m3, the mass density (293.15 K, a1 = 0.02772) was 949.88 ± 0.27 kg/m3 and the mass density (293.15 K, a1 = 0.03739) was 950.335 ± 0.27 kg/m3. The mass density (293.15 K, a1 = 0.05602) was 951.208 ± 0.27 kg/m3, the mass density (293.15 K, a1 = 0.07557) was 952.108 ± 0.27 kg/m3 and the mass density (293.15 K, a1 = 0.105) was 953.456 ± 0.27 kg/m3. It also gave a mass density (293.15 K, a1 = 0.1323) of 954.704 ± 0.27 kg/m3, a mass density (293.15 K, a1 = 0.1595) of 955.944 ± 0.27 kg/m3 and a mass density (293.15 K, a1 = 0.1889) of 957.263 ± 0.27 kg/m3. The mass density (298.15 K, a1 = 0.01826) was 944.677 ± 0.27 kg/m3, the mass density (298.15 K, a1 = 0.02772) was 945.132 ± 0.27 kg/m3 and the mass density (298.15 K, a1 = 0.03739) was 945.594 ± 0.27 kg/m3. It also gave a mass density (298.15 K, a1 = 0.05602) of 946.474 ± 0.27 kg/m3, a mass density (298.15 K, a1 = 0.07557) of 947.385 ± 0.27 kg/m3 and a mass density (298.15 K, a1 = 0.105) of 948.752 ± 0.27 kg/m3. The mass density (298.15 K, a1 = 0.1323) was 950.012 ± 0.27 kg/m3, the mass density (298.15 K, a1 = 0.1595) was 951.267 ± 0.27 kg/m3 and the mass density (298.15 K, a1 = 0.1889) was 952.6 ± 0.27 kg/m3. It also gave a mass density (303.15 K, a1 = 0.01826) of 939.914 ± 0.27 kg/m3, a mass density (303.15 K, a1 = 0.02772) of 940.374 ± 0.27 kg/m3 and a mass density (303.15 K, a1 = 0.03739) of 940.842 ± 0.27 kg/m3. The mass density (303.15 K, a1 = 0.05602) was 941.736 ± 0.27 kg/m3, the mass density (303.15 K, a1 = 0.07557) was 942.66 ± 0.27 kg/m3 and the mass density (303.15 K, a1 = 0.105) was 944.04 ± 0.27 kg/m3. For the same molecule, the mass density (303.15 K, a1 = 0.1323) was 945.316 ± 0.27 kg/m3, the mass density (303.15 K, a1 = 0.1595) was 946.585 ± 0.27 kg/m3 and the mass density (303.15 K, a1 = 0.1889) was 947.938 ± 0.27 kg/m3. For the same molecule, the mass density (313.15 K, a1 = 0.01826) was 930.356 ± 0.26 kg/m3, the mass density (313.15 K, a1 = 0.02772) was 930.828 ± 0.26 kg/m3 and the mass density (313.15 K, a1 = 0.03739) was 931.308 ± 0.26 kg/m3. For the same molecule, the mass density (313.15 K, a1 = 0.05602) was 932.224 ± 0.26 kg/m3, the mass density (313.15 K, a1 = 0.07557) was 933.171 ± 0.26 kg/m3 and the mass density (313.15 K, a1 = 0.105) was 934.587 ± 0.27 kg/m3. The mass density (313.15 K, a1 = 0.1323) was 935.896 ± 0.27 kg/m3, the mass density (313.15 K, a1 = 0.1595) was 937.195 ± 0.27 kg/m3 and the mass density (313.15 K, a1 = 0.1889) was 938.585 ± 0.27 kg/m3. It also gave a mass density (323.15 K, a1 = 0.01826) of 920.751 ± 0.26 kg/m3, a mass density (323.15 K, a1 = 0.02772) of 921.238 ± 0.26 kg/m3 and a mass density (323.15 K, a1 = 0.03739) of 921.731 ± 0.26 kg/m3. The mass density (323.15 K, a1 = 0.05602) was 922.67 ± 0.26 kg/m3, the mass density (323.15 K, a1 = 0.07557) was 923.642 ± 0.26 kg/m3 and the mass density (323.15 K, a1 = 0.105) was 925.097 ± 0.26 kg/m3. For the same molecule, the mass density (323.15 K, a1 = 0.1323) was 926.436 ± 0.26 kg/m3, the mass density (323.15 K, a1 = 0.1595) was 927.766 ± 0.26 kg/m3 and the mass density (323.15 K, a1 = 0.1889) was 929.191 ± 0.26 kg/m3. It also gave a mass density (333.15 K, a1 = 0.01826) of 911.09 ± 0.26 kg/m3, a mass density (333.15 K, a1 = 0.02772) of 911.587 ± 0.26 kg/m3 and a mass density (333.15 K, a1 = 0.03739) of 912.092 ± 0.26 kg/m3. For the same molecule, the mass density (333.15 K, a1 = 0.05602) was 913.055 ± 0.26 kg/m3, the mass density (333.15 K, a1 = 0.07557) was 914.058 ± 0.26 kg/m3 and the mass density (333.15 K, a1 = 0.105) was 915.555 ± 0.26 kg/m3. For the same molecule, the mass density (333.15 K, a1 = 0.1323) was 916.928 ± 0.26 kg/m3, the mass density (333.15 K, a1 = 0.1595) was 918.295 ± 0.26 kg/m3 and the mass density (333.15 K, a1 = 0.1889) was 919.755 ± 0.26 kg/m3.
